System: mouse hippocampal slices
Settings: 1 μM, OA 1 μM, 6 h

C#CCn1nc(/C=C/c2ccc(OC)cc2)oc1=O [4e, 5-[(E)-2-(4-Methoxyphenyl)ethenyl]-3-(prop-2-yn-1-yl)-1,3,4-oxadiazol-2(3H)-one]
cell death (PI uptake fluorescence): reduced cell death
